Source: US20030201224A1, “Microbial consortium for the biodegradation of dithiocarbamates” (priority 2002, published 2003)

Tests used:
consortium = test: Degradation of other N-alkyl dithiocarbamates by the consortium (1000 ml bioreactor); conditions: time 0 h; pH 7.2, 20-27° C.
microbial consortium = conditions: soil
Method: One soil environment was inoculated with approximately 1.2×10^7 consortium members/g soil while the other remained uninoculated. Nitrogen and phosphorus was added to both systems. The initial soil pH was 6.8 and the temperature varied from 18° C. to 27° C. Water was added to maintain the dry weight at about 30%. Each soil system was mixed weekly to provide aeration.

Compound: CN(C)C(=S)[S-].[Na+] [SDM, Sodium dimethyl dithiocarbamate]
- % degradation (percent loss over the abiotic Control) (consortium): 3.02%
- PERCENT degradation of SDM (microbial consortium; 100 mg SDM per kg soil, 10 d): 81%
- PERCENT degradation of SDM (microbial consortium; 100 mg SDM per kg soil, 14 d): 87.3%
- PERCENT degradation of SDM (microbial consortium; 100 mg SDM per kg soil, 20 d): 91%
- PERCENT degradation of SDM (microbial consortium; 100 mg SDM per kg soil, 28 d): 92.4%
- PERCENT degradation of SDM (microbial consortium; 500 mg SDM per kg soil, 10 d): 88%
- PERCENT degradation of SDM (microbial consortium; 500 mg SDM per kg soil, 14 d): 92%
- PERCENT degradation of SDM (microbial consortium; 500 mg SDM per kg soil, 20 d): 91%
- PERCENT degradation of SDM (microbial consortium; 500 mg SDM per kg soil, 28 d): 89%
- PERCENT degradation of SDM (microbial consortium; 1000 mg SDM per kg soil, 28 d): 81%

Like-named read-outs stand apart in the source and are kept apart here.
